This experiment addresses T1, dopamine receptors (Rattus norvegicus, UniProt P61169).
T1 construct: brains were immediately dissected on an ice-cold glass plate to remove corpus striatum; from tissue; host or cells: rat corpus striatum, washed homogenate (Sprague-Dawley CD males)
Briefly: Inhibition of ^3 H-spiroperidol binding to dopamine receptors (rat corpus striatum homogenate). More on the design: species or system rat (Sprague-Dawley CD). The protocol:
The procedure was as follows:
Rats (Sprague-Dawley CD males, 250-300 g., Charles River Laboratories, Wilmington, Mass.) were decapitated, and brains were immediately dissected on an ice-cold glass plate to remove corpus striatum (~100 mg./brain). Tissue was homogenized in 40 volumes (1 g.+40 ml). of ice-cold 50 mM. […] The tissue suspension was placed in a 37° C. water bath for 5 minutes to insure inactivation of tissue monoamine oxidase and then kept on ice until used. The incubation mixture consisted of 0.02 ml. inhibitor solution (the desired concentration of the derivative to be tested in stock solution). […] Tubes were incubated in sequence for 10 minutes at 37° C. in groups of three, after which 0.9 ml. of each incubation tube was filtered through Whatman FG/B filters using a high vacuum pump. Each filter was placed in a scintillation vial, 10 ml. of liquid scintillation fluor was added and each vial was vigorously vortexed for about five seconds. Samples were allowed to stand over night, until filters were translucent, vortexed again and then counted 1.0 minute for radioactivity. Binding was calculated as femtomales (10^-15 moles) of ^3 H-spiroperidol bound per mg. protein. […]

By UniProt entry, the sequences of proteins in these tests, tags left out.
UniProt P61169, whole entry: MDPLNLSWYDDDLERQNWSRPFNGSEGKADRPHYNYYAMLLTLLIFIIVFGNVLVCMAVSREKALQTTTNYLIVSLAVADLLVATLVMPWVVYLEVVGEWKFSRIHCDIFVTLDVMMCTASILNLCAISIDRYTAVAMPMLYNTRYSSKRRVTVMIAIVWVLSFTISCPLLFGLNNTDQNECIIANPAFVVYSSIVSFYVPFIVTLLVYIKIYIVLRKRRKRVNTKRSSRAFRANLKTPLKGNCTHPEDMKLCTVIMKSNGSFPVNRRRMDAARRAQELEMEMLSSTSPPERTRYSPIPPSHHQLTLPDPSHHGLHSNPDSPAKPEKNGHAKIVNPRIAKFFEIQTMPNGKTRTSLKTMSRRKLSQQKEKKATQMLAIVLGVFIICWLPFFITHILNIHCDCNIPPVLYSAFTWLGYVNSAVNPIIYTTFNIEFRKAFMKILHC

Where two headings read alike, the source gives them in different places.

As to `O=C(NCCCCN1CC[C@H]2[C@H](C1)c1cc(F)ccc1N2c1ccc(F)cc1)c1ccccc1` (relative stereo) [Example 13, (±) 2-(N--benzoyl-1'-amino-n-but-4'-yl)], the IC50 (usually the concentration that inhibits the measured activity by half) stood at 19 nM. For the molecule `Cc1ccc(S(=O)(=O)NCCCCN2CC[C@H]3[C@H](C2)c2cc(F)ccc2N3c2ccc(F)cc2)cc1` (relative stereo) [Example 16, (±) 2-(N--p-toluenesulfonyl-1'-amino-n-but-4'-yl)], the IC50 (read-out: IC50, inhibition of ^3 H-spiroperidol binding to dopamine receptors, rat corpus striatum, 0.5 nM ^3 H-spiroperidol, 10 min at 37° C.) worked out at 27 nM.

The record behind these values is patent US4352807A, “Hexahydro-trans-pyridoindole neuroleptic agents” (Pfizer Inc., priority 1980, dated 1982).
